Experimental data as given in patent publication US20250319292A1, “MICRONEEDLES AND METHODS FOR TREATING THE SKIN” (THE BRIGHAM AND WOMEN'S HOSPITAL, INC., priority 2021, published 2025).

Columns and labels:
[1] = Chemokine release kinetics (labeled IL-2 from HA-based MNs); assay type: physicochemical
Procedure: Recombinant human IL-2 was fluorescently labeled with the Lightning-Link® Rapid Alexa Fluor®594 kit (Novus Biologicals, USA) following the manufacturer's instructions. Release studies were conducted with HA-based MNs loaded with labeled IL-2. IL-2-loaded, HA-based MNs were placed in Eppendorf Tubes®, immersed with phosphate buffered saline (PBS) (1 mL), and incubated under rotation at 37° C. 100 μL of PBS was replaced at predetermined time point, and IL-2 fluorescence was assessed by checking the fluorescence at 650-665 nm using a microplate reader.
(§1) The efficient release delivery of cytokines from the MNs was initially studied using fluorescently labeled IL-2. […] To validate this hypothesis, the interaction with the cytokine was blocked by treating the hydrogel with an end-capping agent, the amino acid glycine, whose amino-end groups would preferentially interact with the crosslinker's non-reacted NHS-terminal groups.

[2] = HA-based MNs loading capacity (labeled IL-2); assay type: physicochemical; conditions: fluorescence quantification
Procedure: HA-based MNs were loaded with labeled IL-2 concentrations. IL-2-loaded MNs were digested as described above, and IL-2 loading capacity was assessed by checking the IL-2 fluorescence at 650-665 nm using a microplate reader.
as §1

Substance: IL-2: recombinant human IL-2, fluorescently labeled, loaded in HA-based MNs as drug model
- IL-2 release from MNs without end-capping ([1]; PBS 37° C., no glycine end-capping): no IL-2 was released
- cytokine released from end-capped hydrogel MNs ([1]; glycine end-capping, within the first 30 minutes): more than 80%
- relation of loaded and retrieved IL-2 after digestion of MN patches [2]: linear correlation
